Target: HEK-293 cells expressing human recombinant adenosine A2A receptor (Homo sapiens (Human), UniProt P29274)
Test: cAMP assay, Assay 2 (Eu-cAMP tracer / ULight-anti-cAMP)
Conditions: read-out: A2a cAMP IC50
Method: The functional activity of compounds was tested using one of the two assays to detect the present of cAMP. Activation of G-protein coupled receptors (such as A2A) results in activation of adenylcyclase which converts ATP into cAMP which is used as a downstream signaling molecule. Therefore, molecules which act as GPCR (or specifically A2A receptor) antagonists cause a decrease in intracellular cAMP concentration.
Both assays used HEK-293 cells expressing human recombinant adenosine A2A receptor were grown prior to the test in media without antibiotic. Assay 1 (Table B2-1): The cells were detached by gentle flushing with PBS-EDTA (5 mM EDTA), recovered by centrifugation and suspended in assay buffer (KRH: 5 mM KCl, 1.25 mM MgSO4, 124 mM NaCl, 25 mM HEPES, 13.3 mM Glucose, 1.25 mM KH2PO4, 1.45 mM CaCl2, 0.5 g/L BSA, supplemented with Rolipram).
Assay 2 (Table B2-2): 100 nL of test articles at 100× of final concentration were transferred to assay plate by Echo. Cells were washed twice with 5 mL of PBS […]. After aspirating the PBS and adding 1.5 mL versine, cells were incubated at 37° C. for 2-5 min. After centrifugation, 4 mL of medium was added and adjusted cell density to 5,000 cells/well with Stimulation Buffer. […] Plates were read on EnVision.

**Q.** With `Cc1ccn(-c2nc(N)cnc2-c2cc(Cl)c3[nH]cnc3c2)n1` as the molecule, how does the IC50 read?
**A.** The IC50 was 867 nM.
